Five compounds from PubChem BioAssay AID572 (SRMLSC, 2007) can be followed below.

Molecules are shown by their SMILES. The list shows a part of the results, in another mix than the full data. The source made the active and inactive calls.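 The calls were made as follows: active = viability at or below 10% of carrier control in both of two separate runs; inconclusive = viability at or below 10% in only one of the two runs; inactive = the rest.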

The test is described as follows: reduced viability of SK-BR-3 breast cancer cells – cell-based, 24 h, human, pilot screen (AID 572).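 Also: compound exposure lasted between 18 and 24 h rather than exactly 24 h; 100% = carrier-treated control wells.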 The conditions noted are these: SK-BR-3 viability, CellTiter-Glo luminescence, at 10 µM, active compounds read low. On the technique in general: Cellular ATP, detected with luciferase, serves as a proxy for viable cell number.
In the case of `Cc1ccc(C)c(NP(C)(=O)Oc2ccccc2)c1` (stereo not given), the viability was inactive: 113%. Take `CP(=S)(Nn1cnnc1)Oc1ccccc1` (stereo not given): the viability was inactive: 101%. As for `CP(=O)(Nc1ccccn1)Oc1ccccc1` (stereo not given), the figure is inactive: 88%; as for `CP(=O)(Nc1ccc2c(c1)OCCO2)Oc1ccccc1` (stereo not given), inactive: 114%; as for `CN(C)CCOC(=O)C(O)(c1ccccc1)C1CCCCC1` (stereo not given), inactive: 102%.

The viability is a read-out of living cells in per cent, often relative to untreated cells.
